The IC50 is the point on the concentration scale where inhibition reaches its midpoint.

IC50 data for 1 compound are collected here from US20150018403A1, “FLUORENE-AMIDE COMPOUNDS AND PHARMACEUTICAL USE THEREOF” (JAPAN TOBACCO INC., priority 2013, published 2015).

The target of this assay is T1, human PDHK2 (hPDHK2) (Homo sapiens, UniProt Q15119).
T1 construct: made in house; host or cells: Escherichia coli BL21(DE3), pET17b vector
The assay can be described thus: Inhibitory action of PDHK2 activity in vitro (residual PDH activity after kinase reaction). In kind it is biochemical. As to conditions: PDH/hPDHK2 complex, 45 min kinase reaction at room temperature. The method, then:
The inhibitory action of PDHK activity was assessed indirectly by measuring the residual PDH activity after kinase reaction in the presence of a test compound.
In the case of human PDHK2 (hPDHK2, Genbank Accession No. BC040478.1), modified hPDHK2 cDNA wherein FLAG-Tag sequence was added to the N terminus of hPDHK2 cDNA clone (pReceiver-M01/PDK2-GeneCopoeia) was prepared by PCR and cloned into a vector (pET17b-Novagen). The recombinant construct was transformed into Escherichia coli (DH5α-TOYOBO). The recombinant clones were identified, and plasmid DNA was isolated and subjected to the DNA sequence analysis. One clone which had the expected nucleic acid sequence was selected for expression work. […]
0.05 U/mL PDH and 0.8 μg/mL hPDHK2 were mixed in a buffer (50 mmol/L 3-morpholinopropanesulfonic acid (pH 7.0), 20 mmol/L dipotassium hydrogen phosphate, 60 mmol/L potassium chloride, 2 mmol/L magnesium chloride, 0.4 mmol/L EDTA, and 0.2% Pluronic F-68, 2 mmol/L dithiothreitol), and the mixture was incubated at 4° C. overnight to obtain a PDH/hPDHK2 complex. […] The mixture was incubated at room temperature for 90 min, and the residual PDH activity was measured. The absorbance at 340 nm before and after PDH reaction was measured using a microplate reader to detect NADH produced by the PDH reaction. […]

Compound `CC(C)(C(N)=O)n1cc(-c2cc(F)cc3c2-c2ccccc2[C@]3(O)C(F)(F)F)cn1` [compound (D), 2-{4-[(9R)-2-Fluoro-9-hydroxy-9-(trifluoromethyl)-9H-fluoren-4-yl]-1H-pyrazol-1-yl}-2-methylpropanamide] gave a half-inhibitory concentration (IC50) of 5.1 nM.
